Assay results from PubChem BioAssay AID588511 (Johns Hopkins Ion Channel Center, 2011).
The entries are a selection whose mix differs from that of the whole data set. Some structures show a salt or complex split into parts, the way the source records it. Activity calls are given as the source filed them.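 Rule for the calls: active = ratio plate-corrected score three or more library SD toward inhibition, starting fluorescence score within five deviations; inactive = the rest.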

Amino acid sequences for entries named in this document (tags omitted).
UniProt Q8BHY3, whole entry: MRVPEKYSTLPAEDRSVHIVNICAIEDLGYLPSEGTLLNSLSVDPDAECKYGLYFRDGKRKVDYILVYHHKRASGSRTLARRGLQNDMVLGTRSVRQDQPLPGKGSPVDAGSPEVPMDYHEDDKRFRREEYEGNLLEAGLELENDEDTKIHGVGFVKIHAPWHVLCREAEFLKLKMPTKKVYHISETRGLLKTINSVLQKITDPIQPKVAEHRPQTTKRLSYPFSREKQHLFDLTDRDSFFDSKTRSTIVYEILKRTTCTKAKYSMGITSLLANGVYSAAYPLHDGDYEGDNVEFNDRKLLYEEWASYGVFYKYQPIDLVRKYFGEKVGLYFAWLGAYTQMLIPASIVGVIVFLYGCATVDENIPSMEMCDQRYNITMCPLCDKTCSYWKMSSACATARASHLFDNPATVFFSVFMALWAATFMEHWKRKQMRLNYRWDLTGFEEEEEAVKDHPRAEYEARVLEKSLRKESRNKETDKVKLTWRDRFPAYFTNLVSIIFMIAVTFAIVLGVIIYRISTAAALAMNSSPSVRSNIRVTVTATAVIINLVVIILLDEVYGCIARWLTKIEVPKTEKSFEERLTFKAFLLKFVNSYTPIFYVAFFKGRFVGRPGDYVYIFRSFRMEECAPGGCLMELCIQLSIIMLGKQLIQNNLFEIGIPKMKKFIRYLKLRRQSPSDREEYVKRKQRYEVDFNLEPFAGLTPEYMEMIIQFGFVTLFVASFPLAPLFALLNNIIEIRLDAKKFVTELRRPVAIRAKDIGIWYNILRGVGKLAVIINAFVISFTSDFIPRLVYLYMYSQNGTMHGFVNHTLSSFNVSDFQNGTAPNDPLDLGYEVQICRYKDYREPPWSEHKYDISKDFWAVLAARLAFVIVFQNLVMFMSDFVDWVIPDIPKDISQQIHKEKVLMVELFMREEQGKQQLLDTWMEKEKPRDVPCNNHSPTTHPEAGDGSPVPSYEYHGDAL

These compounds were tested against Anoctamin-1 (Mus musculus) (UniProt Q8BHY3) (assay: blockers of mouse ANO1 Ca-activated Cl channel – cell-based, HTS, primary screen (AID 588511)). Conditions: HEK293 TMEM16A/YFP iodide influx fluorescence, ionomycin; at 10 µM.

SMILES | outcome
CC(=O)c1ccc(N2CC2c2ccncc2)cc1 (centres undefined) | inactive
O=C(OC1CN2CCC1CC2)c1ccc([N+](=O)[O-])cc1 (centres undefined) | inactive
O=C(OCCN1CCN(CCOCc2ccccc2)CC1)C(O)(c1ccccc1)c1ccccc1 | inactive
C[C@@H]1C=CCP(=O)(Oc2ccccc2)O1 (some centres undefined) | inactive
C[C@H]1OP(=O)(Oc2ccccc2)C[C@@H]2O[C@@H]21 (some centres undefined) | inactive
COc1ccc2c(c1O)-c1c(O)c(OC)cc3c1[C@H](C2)[N+](C)(C)CC3.O=[N+]([O-])c1cc([N+](=O)[O-])c([O-])c([N+](=O)[O-])c1[O-] | inactive
CC(=O)Nc1ccc([As](=O)(O)O)c(O)c1 | inactive
CC(=O)Nc1ccc(Oc2c([N+](=O)[O-])cc([N+](=O)[O-])cc2[N+](=O)[O-])cc1 | inactive
O=P1(Nc2nc3ccc(Cl)cc3s2)COc2ccccc2O1 (centres undefined) | inactive
CCOc1ccc(C2=NCC(CBr)S2)cc1 (centres undefined) | inactive
CP(=O)(Nc1ccccc1F)Oc1ccccc1 (centres undefined) | inactive
CC(C)(C)C(=O)NC(Sc1ccccc1)C(Cl)(Cl)Cl (centres undefined) | inactive
CC(C)c1ccc(OP(C)(=O)Nc2ccc(SC(F)(F)F)cc2)cc1 (centres undefined) | inactive
COC(=O)c1cc2c(s1)N=C(c1ccccc1)N(C)P2(=O)N1CCOCC1 (centres undefined) | inactive
CC(=O)NC(SC(=S)N(CC(C)C)CC(C)C)C(Cl)(Cl)Cl (centres undefined) | inactive
Cc1ccc(OP(=O)(Nc2ccccn2)Oc2ccc(C)cc2)cc1 | inactive
O=C(OC1CN2CCC1CC2)c1ccccc1 (centres undefined) | inactive
CCN(CC)CCCOC(=O)C(O)(c1ccccc1)C1CCCCC1 (centres undefined) | inactive
CCC(=O)N1C2C3N(C(=O)CC)C1C1N(C(=O)CC)C(C(N1C(=O)CC)N3C(=O)CC)N2C(=O)CC | inactive
CP(=O)(Nc1ccccc1)Oc1ccc(F)cc1 (centres undefined) | inactive
Cc1ccccc1OP(=O)(Nc1ccccn1)Oc1ccccc1C | inactive
CN(C)C(=O)Oc1noc2ccccc12 | inactive
CCCCCOc1ccc(NP(C)(=O)Oc2ccc(Cl)cc2Cl)cc1 (centres undefined) | inactive
O=[N+]([O-])c1cc([N+](=O)[O-])c(OC2CCCCC2O)c([N+](=O)[O-])c1 (centres undefined) | inactive
CCNC(=S)/N=C(\N)N[N+](=O)[O-] | inactive

SMILES | outcome
O=C(NC1CCS(=O)(=O)C1)NP(=S)(Oc1ccccc1)Oc1ccccc1 (centres undefined) | inactive
c1ccc(-c2nn[nH]n2)c(-c2nn[nH]n2)c1 | inactive
Cc1ccc(NP(=O)(Oc2cccc(C)c2)Oc2cccc(C)c2)nc1 | inactive
CCOC(=O)NC(Sc1ccccc1)C(Cl)(Cl)Cl (centres undefined) | inactive
CCOC(=O)c1ccc(NP(C)(=O)Oc2ccc(F)cc2)cc1 (centres undefined) | inactive
COc1ccc(OP(C)(=O)Nc2ccc(SC(F)(F)F)cc2)cc1 (centres undefined) | inactive
CC(=O)NC(SC(=S)N(C)C)C(Cl)(Cl)Cl (centres undefined) | inactive
O=[N+]([O-])c1ccc(OP2(=O)COCCO2)cc1 (centres undefined) | inactive
O=[N+]([O-])c1ncn(CCn2cnc([N+](=O)[O-])n2)n1 | inactive
O=[As](O)(c1ccccc1)c1ccc(O)cc1 | inactive
O=[N+]([O-])c1cc([N+](=O)[O-])c(NCC2CCS(=O)(=O)C2)c([N+](=O)[O-])c1 (centres undefined) | inactive
Nc1ccc([As](=O)(O)c2ccc([N+](=O)[O-])cc2)cc1 | inactive
C(Cc1nn[nH]n1)Cc1nn[nH]n1 | inactive
O=C(OC1CN2CCC1CC2)c1cccc(Cl)c1 (centres undefined) | inactive
COc1ccc(OP(C)(=O)Nc2cccc(Br)c2)cc1 (centres undefined) | inactive
O=P(Nc1ccccn1)(c1ccc(Br)cc1)c1ccc(Br)cc1 | inactive
CN(C)C1(CNC(=O)c2ccc(Cl)c(S(N)(=O)=O)c2)CCCCC1 | inactive
CN(C)CCOC(=O)C(O)(c1ccccc1)C1CCCCC1 (centres undefined) | inactive
O=P(Nc1nc2ccccc2s1)(c1ccccc1)c1ccccc1 | inactive
C[C@H]1OP(=O)(Oc2ccccc2)[C@H](O)[C@H](O)[C@H]1N=[N+]=[N-] (some centres undefined) | inactive
COc1ccc(NP(C)(=O)Oc2ccccc2OC)cc1 (centres undefined) | inactive
CP(=O)(Nc1ccc2c(c1)OCCO2)Oc1ccccc1 (centres undefined) | inactive
Cc1ccccc1NP(C)(=O)Nc1ccccc1C | inactive
CP(=O)(Nc1ccc(SC(F)(F)F)cc1)Oc1ccc(F)cc1 (centres undefined) | inactive
CC(C)C(=O)NC(Sc1ccccc1)C(Cl)(Cl)Cl (centres undefined) | inactive

SMILES | outcome
O=P(Nc1nccs1)(c1ccccc1)c1ccccc1 | inactive
CCOP(C)(=S)SCC(=O)NC(C)(CC)C(=O)O (centres undefined) | inactive
c1nnnn1CCn1cnnn1 | inactive
CC(C)(C)c1ccc(OP(C)(=O)O)cc1 | inactive
Nc1ccc([As](=O)(O)c2ccc(N)cc2)cc1 | inactive
COc1ccccc1OP(C)(=O)Nc1ccccc1Br (centres undefined) | inactive
C[N+]1=C2C=CC=CC=C2SC12C([N+](=O)[O-])=CC([N+](=O)[O-])=C[C-]2[N+](=O)[O-] (centres undefined) | inactive
CCN(/C(=N/P(=O)(N1CCOCC1)N1CCOCC1)N1CCOCC1)c1ccc(OC)cc1 | inactive
CP(=O)(Nc1ccc(Cl)cc1)Oc1ccc(F)cc1 (centres undefined) | inactive
CN(C)C(=O)c1c([N+](=O)[O-])cc([N+](=O)[O-])cc1[N+](=O)[O-] | inactive
CC(C)=N/N=C(\N)N[N+](=O)[O-] | inactive
CN(C)C(=O)OCCc1n(C)cc[n+]1C | inactive
CC1CCN(C(=O)Oc2c(Cl)cc(Cl)c3cccnc23)CC1 | inactive
CCN(CC)CC(O)COC(=O)C(O)(c1ccccc1)C1CCCCC1 (centres undefined) | inactive
COc1ccc(OP(C)(=O)Nc2ccc(Br)cc2)cc1 (centres undefined) | inactive
COc1ccc(C2=NCC(CBr)S2)cc1 (centres undefined) | inactive
COc1ccccc1OP(C)(=O)Nc1c(C)n(C)n(-c2ccccc2)c1=O (centres undefined) | inactive
O=[N+]([O-])c1cccc2n[nH]nc12 | inactive
CC(=O)N1C2C3N(C(C)=O)C1C1N(C(C)=O)C(C(N1C(C)=O)N3C(C)=O)N2C(C)=O | inactive
O=C(OCCCN1CCCC1)C(O)(c1ccccc1)C1CCCCC1 (centres undefined) | inactive
CP(=O)(Oc1ccccc1)N1CCOC1=O (centres undefined) | inactive
Cc1ccc(NP(=O)(Oc2ccccc2)Oc2ccccc2)nc1 | inactive
O=[N+]([O-])c1cc([N+](=O)[O-])c(CCNc2ccccc2)c([N+](=O)[O-])c1 | inactive
CCc1ccc(OP(C)(=O)Nc2cccnc2)cc1 (centres undefined) | inactive
